{"sequences": {"note": "Amino acid sequences for entries named in this document (tags omitted). A change or cut given only in a name is not applied to a line headed by its entry.", "UniProt P14598": "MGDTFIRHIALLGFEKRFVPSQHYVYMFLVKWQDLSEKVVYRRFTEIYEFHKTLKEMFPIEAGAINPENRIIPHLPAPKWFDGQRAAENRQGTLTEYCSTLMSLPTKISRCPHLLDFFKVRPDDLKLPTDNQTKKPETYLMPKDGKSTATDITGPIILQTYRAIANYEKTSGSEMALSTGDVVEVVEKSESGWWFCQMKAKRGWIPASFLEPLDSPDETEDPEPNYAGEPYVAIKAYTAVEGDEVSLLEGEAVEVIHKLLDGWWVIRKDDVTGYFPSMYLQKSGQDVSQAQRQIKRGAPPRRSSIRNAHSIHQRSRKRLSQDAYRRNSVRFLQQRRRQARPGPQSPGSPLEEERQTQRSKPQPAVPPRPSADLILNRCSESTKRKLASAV"}, "source": "PubChem BioAssay AID1274", "about": "(Emory University Molecular Libraries Screening Center, 2008)", "note": "Values joined by “and” are separate entries in the source; they are usually repeats but may differ in a detail not shown here. Identical values can stand only once. Only a part is listed here, and it is no random draw. Active and inactive are the calls of the source.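 Rule for the calls: active = inhibition above about 30% (limit read from the data); inactive = the rest.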"}
{"biological_target": "Neutrophil cytosol factor 1 (Homo sapiens) (UniProt P14598)", "experiment": "blockers of p47phox binding to p22phox – biochemical, uHTS, NADPH oxidase regulatory subunit, primary screen (AID 1274);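 note: 0% = p47phox with labelled peptide and 100% = labelled peptide alone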", "conditions": "p47phox/p22phox peptide binding, fluorescence polarization, 2 h; at 24.7 µM; stronger effect = higher value"}
{"smiles": "O=C(/C=C/c1ccccc1)OC1CN2CCC1CC2", "note": "(stereo not drawn)", "inhibition": "inactive: -1.88%"}
{"smiles": "Cc1nn(-c2ccccc2)c2c1P(=O)(N1CCOCC1)N(C)C(c1ccccc1)=N2", "note": "(stereo not drawn)", "inhibition": "inactive: -4.73%"}
{"smiles": "CC1CCC(C(C)C)C(OP(=O)(Nc2ccccn2)c2ccccc2)C1", "note": "(stereo not drawn)", "inhibition": "inactive: -2.8%"}
{"smiles": "O=[As](O)(c1cccs1)c1cccs1", "inhibition": "inactive: 4.3%"}
{"smiles": "Cc1ccc(OCC(=O)OC2CN3CCC2CC3)cc1", "note": "(stereo not drawn)", "inhibition": "inactive: -6.85%"}
{"smiles": "O=P1(Nc2ccc(Br)cn2)COc2ccccc2OC1", "inhibition": "inactive: -1.67%"}
{"smiles": "Nc1cccc([As](=O)(O)c2ccccc2)c1", "inhibition": "inactive: -3.67%"}
{"smiles": "O=P1(Nc2ncccn2)COc2ccccc2OC1", "inhibition": "inactive: 13.9%"}
{"smiles": "Clc1n[nH]nc1-c1nn[nH][15n]1", "inhibition": "inactive: -15.5%"}
{"smiles": "CC(C)(C)C(=O)NC(Sc1ncccn1)C(Cl)(Cl)Cl", "note": "(stereo not drawn)", "inhibition": "inactive: -5.38%"}
{"smiles": "CCOP(=O)(Nc1ccc(C)cn1)OCC", "inhibition": "inactive: -9.36%"}
{"smiles": "O=P1(Nc2ccccn2)COc2ccccc2OC1", "inhibition": "inactive: 1.21%"}
{"smiles": "CC(C)/C=N\\N=C(\\N)N[N+](=O)[O-]", "inhibition": "inactive: 1.5%"}
{"smiles": "CN(C(=O)Cc1ccc(Cl)c(Cl)c1)[C@@H]1CCCC[C@H]1N1CCCC1", "inhibition": "inactive: -12%"}
{"smiles": "Cc1cccc(OCC(=O)OC2CN3CCC2CC3)c1", "note": "(stereo not drawn)", "inhibition": "inactive: -2.89%"}
{"smiles": "O=[As](O)(c1cccc(O)c1)c1cccc(O)c1", "inhibition": "inactive: -8.64%"}
{"smiles": "O=[As](O)(O)c1cccnc1", "inhibition": "inactive: -53.5%"}
{"smiles": "COc1cc(C(=O)NCC2(N3CCOCC3)CCCCC2)cc(Cl)c1OC(C)C", "inhibition": "inactive: -2.97%"}
{"smiles": "O=C(OC1CN2CCC1CC2)c1ccc(Cl)cc1", "note": "(stereo not drawn)", "inhibition": "inactive: 0.84%"}
{"smiles": "COc1cc(C2NCCC3(OCCO3)C2(C)C)cc(OC)c1OC", "note": "(stereo not drawn)", "inhibition": "inactive: -12.8%"}
{"smiles": "CCOP(=O)(Nc1cccc2ccccc12)OCC", "inhibition": "inactive: -5.4%"}
{"smiles": "CCCOP(=S)(Nc1nc(N)cc(=O)[nH]1)OCCC", "inhibition": "inactive: 0.68%"}
{"smiles": "Nc1cccc2c([As](=O)(O)O)cccc12", "inhibition": "inactive: 10.6%"}
{"smiles": "Cc1ccc(NCCc2c([N+](=O)[O-])cc([N+](=O)[O-])cc2[N+](=O)[O-])cc1", "inhibition": "inactive: -11%"}
{"smiles": "Nc1ccccc1[As](=O)(O)c1ccccc1", "inhibition": "inactive: 1.63%"}
{"smiles": "O=C(O)COc1ccc([As](=O)(O)O)cc1[N+](=O)[O-]", "inhibition": "inactive: 2.1%"}
{"smiles": "CS(=O)(=O)c1cc([N+](=O)[O-])c2no[n+]([O-])c2c1", "inhibition": "inactive: 29.9%"}
{"smiles": "CCOP1(=S)c2c(C)nn(CCC#N)c2N=C(c2ccccc2F)N1C", "note": "(stereo not drawn)", "inhibition": "inactive: -9.88%"}
{"smiles": "O=P(Nc1nccs1)(Oc1ccccc1)Oc1ccccc1", "inhibition": "inactive: -11%"}
{"smiles": "O=P(Nc1nccs1)(c1ccccc1)c1nc2ccccc2s1", "note": "(stereo not drawn)", "inhibition": "active: 61.7%"}
{"smiles": "O=[N+]([O-])c1ccc2c(c1)nnn2O", "inhibition": "inactive: -5.61%"}
{"smiles": "CCOP1(=S)c2c(C)nn(CCC#N)c2N=C(c2ccc(F)cc2)N1C", "note": "(stereo not drawn)", "inhibition": "inactive: -3.56%"}
{"smiles": "CN(C(=O)Cc1ccccc1)[C@@H]1CC[C@]2(CCCO2)C[C@H]1N1CCCC1", "inhibition": "inactive: 0.11%"}
{"smiles": "NC(=O)Nc1ccc([As](=O)(O)O)cc1", "inhibition": "inactive: -14.9%"}
{"smiles": "Cc1ccc2nc3c(c(C)c2c1)CC(C(Cl)Cl)S3", "note": "(stereo not drawn)", "inhibition": "inactive: -9.87%"}
{"smiles": "Cc1ccc(OP(=O)(Nc2ccc([N+](=O)[O-])cn2)Oc2ccc(C)cc2)cc1", "inhibition": "inactive: -6.7%"}
{"smiles": "O=[As](O)(c1ccc(O)cc1)c1ccccc1O", "inhibition": "inactive: -9.96%"}
{"smiles": "C[As](=O)(O)c1cccc(C(=O)O)c1", "inhibition": "inactive: -4.7%"}
{"smiles": "CC(C)NC(=O)NP(=O)(Oc1ccccc1)Oc1ccccc1", "inhibition": "inactive: -9.6%"}
{"smiles": "CCN(CC)C(=S)SC(NC=O)C(Cl)(Cl)Cl", "note": "(stereo not drawn)", "inhibition": "inactive: -17.9%"}
{"smiles": "O=[N+]([O-])c1cc([N+](=O)[O-])c(-c2ccn[nH]2)s1", "inhibition": "inactive: -1.52%"}
{"smiles": "CC(C)c1ccc(OP(=O)(Nc2ccccn2)Oc2ccccc2F)cc1", "note": "(stereo not drawn)", "inhibition": "inactive: -5.86%"}
{"smiles": "ClCCSc1nnc(-c2cccnc2)o1", "inhibition": "inactive: -1.54%"}
{"smiles": "COc1ccc2nc(NP(=O)(c3ccccc3)c3ccccc3)sc2c1", "inhibition": "inactive: -2.24%"}
{"smiles": "COc1cc(I)ccc1[As](=O)(O)O", "inhibition": "inactive: -7.96%"}
{"smiles": "O=C(OC1CN2CCC1CC2)C12CC3CC(CC(C3)C1)C2", "note": "(stereo not drawn)", "inhibition": "inactive: -9.28%"}
{"smiles": "Cc1cc(=O)[nH]c(N[N+](=O)[O-])n1", "inhibition": "inactive: -3.52%"}
{"smiles": "Cc1c2c(nc3ccccc13)SC(C(Cl)Cl)C2", "note": "(stereo not drawn)", "inhibition": "inactive: -13.9%"}
{"smiles": "COc1ccc(N/C(=N/P(=O)(N2CCOCC2)N2CCOCC2)N2CCOCC2)cc1", "inhibition": "inactive: 2.74%"}
{"smiles": "O=C(COc1ccccc1)OC1CN2CCC1CC2", "note": "(stereo not drawn)", "inhibition": "inactive: -4.37%"}
{"smiles": "COP1(=S)c2c(C)nn(CCC#N)c2N=C(c2ccc(F)cc2)N1C", "note": "(stereo not drawn)", "inhibition": "inactive: 5.76%"}
{"smiles": "CCC(C)N(CC(C)C)C(=S)SC(NC(C)=O)C(Cl)(Cl)Cl", "note": "(stereo not drawn)", "inhibition": "inactive: -5.78%"}
{"smiles": "CCOC(=O)c1ccc(NC(=O)C(C)(CCl)SC)cc1", "note": "(stereo not drawn)", "inhibition": "inactive: -19.9%"}
{"smiles": "Cc1cc(SC(NC(=O)c2ccccc2)C(Cl)(Cl)Cl)nc(C(C)C)n1", "note": "(stereo not drawn)", "inhibition": "inactive: -19.7%"}
{"smiles": "CCOC(=O)Nc1ccc([As](=O)(O)O)c(O)c1", "inhibition": "inactive: -7.35%"}
{"smiles": "O=[N+]([O-])c1ccc(Nc2ccc(Oc3ccc([N+](=O)[O-])cc3[N+](=O)[O-])cc2)c([N+](=O)[O-])c1", "inhibition": "inactive: -10.1%"}
{"smiles": "O=P(Nc1ccccn1)(c1cccc2ccccc12)c1cccc2ccccc12", "inhibition": "inactive: -15.2%"}
{"smiles": "Cc1cc(SC(NC=O)C(Cl)(Cl)Cl)ncn1", "note": "(stereo not drawn)", "inhibition": "inactive: -3.89%"}
{"smiles": "CCOC(=O)Nc1cccc([As](=O)(O)O)c1", "inhibition": "inactive: 5.38%"}
{"smiles": "O=C(Nc1cc([As](=O)(O)O)ccc1O)c1ccccc1", "inhibition": "inactive: -8.26%"}
{"smiles": "O=[N+]([O-])c1cccc(NC2=NCC(CBr)S2)c1", "note": "(stereo not drawn)", "inhibition": "inactive: -9.56%"}
{"smiles": "O=C(O)CNc1ccc([As](=O)(O)O)cc1", "inhibition": "inactive: 2.76%"}
{"smiles": "CC(C)(C)C(=O)NC(Sc1ccncn1)C(Cl)(Cl)Cl", "note": "(stereo not drawn)", "inhibition": "inactive: 0.59%"}
{"smiles": "O=[N+]([O-])c1ncn(CCn2ncnc2[N+](=O)[O-])n1", "inhibition": "inactive: -1.47%"}
{"smiles": "O=[N+]([O-])c1cccc2n[nH]nc12", "inhibition": "inactive: -5.05%"}
{"smiles": "CC(=O)N1C2C3N(C(C)=O)C1C1N(C(C)=O)C(C(N1C(C)=O)N3C(C)=O)N2C(C)=O", "inhibition": "inactive: -9.94%"}
{"smiles": "Cc1ccc(NP(=O)(Oc2ccccc2)Oc2ccccc2)nc1", "inhibition": "inactive: -2.22%"}
{"smiles": "CCc1nc2c(n1)c1c(non1O)c1c2no[n+]1[O-]", "inhibition": "inactive: -14.7%"}
{"smiles": "O=[N+]([O-])c1cc([N+](=O)[O-])c(CCNc2ccccc2)c([N+](=O)[O-])c1", "inhibition": "inactive: -2.86%"}
{"smiles": "COc1ccc(C2=NCC(CBr)S2)cc1", "note": "(stereo not drawn)", "inhibition": "inactive: -2.82%"}
{"smiles": "CC(C)=N/N=C(\\N)N[N+](=O)[O-]", "inhibition": "inactive: -0.24%"}
{"smiles": "CN(C)C(=O)OCCc1n(C)cc[n+]1C", "inhibition": "inactive: -5.35%"}
{"smiles": "CC1CCN(C(=O)Oc2c(Cl)cc(Cl)c3cccnc23)CC1", "inhibition": "inactive: -11.1%"}
{"smiles": "Nc1ccc([As](=O)(O)c2ccc(N)cc2)cc1", "inhibition": "inactive: -7.8%"}
{"smiles": "C[N+]1=C2C=CC=CC=C2SC12C([N+](=O)[O-])=CC([N+](=O)[O-])=C[C-]2[N+](=O)[O-]", "note": "(stereo not drawn)", "inhibition": "inactive: 5.79%"}
{"smiles": "CCN(/C(=N/P(=O)(N1CCOCC1)N1CCOCC1)N1CCOCC1)c1ccc(OC)cc1", "inhibition": "inactive: 7.44%"}
{"smiles": "COc1ccccc1OP(=O)(Nc1ccc(C)cn1)Oc1ccccc1OC", "inhibition": "inactive: -5.08%"}
{"smiles": "Cc1ccc(OP(=O)(Nc2nccs2)Oc2ccc(C)cc2)cc1", "inhibition": "inactive: -12%"}
{"smiles": "CN1CCCC(OC(=O)C(c2ccccc2)c2ccccc2)C1", "note": "(stereo not drawn)", "inhibition": "inactive: 3.83%"}
{"smiles": "NC(=O)c1cc([N+](=O)[O-])cc([N+](=O)[O-])c1N", "inhibition": "inactive: 1.99%"}
{"smiles": "Cc1ccc(N/C(=N/P(=O)(N2CCOCC2)N2CCOCC2)N2CCOCC2)cc1", "inhibition": "inactive: -0.76%"}
{"smiles": "Nc1cc(N)c2nonc2c1[N+](=O)[O-]", "inhibition": "inactive: -15.2%"}
{"smiles": "CC(C)CC(=O)NC(Sc1ccc(Cl)cc1)C(Cl)(Cl)Cl", "note": "(stereo not drawn)", "inhibition": "inactive: -8.49%"}
{"smiles": "Oc1ccccc1CNc1ccccn1", "inhibition": "inactive: -0.41%"}
{"smiles": "O=C(NC(Sc1ccncn1)C(Cl)(Cl)Cl)c1ccccc1", "note": "(stereo not drawn)", "inhibition": "inactive: -18.6%"}
{"smiles": "Cc1c2non([O-])c-2c(C)[n+](=O)[n+]1[O-]", "inhibition": "inactive: -25.5%"}
{"smiles": "Cc1cc(SC(NC(=O)c2ccc(F)cc2)C(Cl)(Cl)Cl)ncn1", "note": "(stereo not drawn)", "inhibition": "inactive: -23.4%"}
{"smiles": "CCOP(=O)(Nc1ccccc1)OCC", "inhibition": "inactive: -8.85% and inactive: -14%"}
{"smiles": "Cc1ccc(NP(=O)(Oc2ccccc2F)Oc2ccccc2F)nc1", "inhibition": "inactive: -7.37%"}
{"smiles": "CC(=O)Nc1ccc([As](=O)(O)O)cc1", "inhibition": "inactive: -37.7%"}
{"smiles": "O=C(O)c1ccccc1[As](=O)(O)O", "inhibition": "inactive: 8.29%"}
{"smiles": "O=P(Nc1nc2ccc(Cl)cc2s1)(c1ccccc1)c1ccccc1", "inhibition": "inactive: -7.09%"}
{"smiles": "CCN(N=Nc1nonc1N)c1nonc1N", "inhibition": "inactive: -3.17%"}
{"smiles": "Nc1cccc2ccc([As](=O)(O)O)cc12", "inhibition": "inactive: 11%"}
{"smiles": "CCNC(=S)/N=C(\\N)N[N+](=O)[O-]", "inhibition": "inactive: -3.21%"}
{"smiles": "O=C(NC1CCS(=O)(=O)C1)NP(=S)(Oc1ccccc1)Oc1ccccc1", "note": "(stereo not drawn)", "inhibition": "inactive: 5.62%"}
{"smiles": "c1ccc(-c2nn[nH]n2)c(-c2nn[nH]n2)c1", "inhibition": "inactive: 14.4%"}
{"smiles": "CCOC(=O)NC(Sc1ccccc1)C(Cl)(Cl)Cl", "note": "(stereo not drawn)", "inhibition": "inactive: -21.7%"}
{"smiles": "Cc1ccc(NP(=O)(Oc2cccc(C)c2)Oc2cccc(C)c2)nc1", "inhibition": "inactive: -4.91%"}
{"smiles": "Cc1ccccc1OP(=O)(Nc1ccccn1)Oc1ccccc1C", "inhibition": "inactive: -16%"}
{"smiles": "O=c1c2cc([N+](=O)[O-])ccc2[nH]c2c([N+](=O)[O-])cc([N+](=O)[O-])cc12", "inhibition": "inactive: -12.8%"}
{"smiles": "CN(C)C(=O)Oc1noc2ccccc12", "inhibition": "inactive: 3.04%"}
{"smiles": "COC(=O)c1cc2c(s1)N=C(c1ccccc1)N(C)P2(=O)N1CCOCC1", "note": "(stereo not drawn)", "inhibition": "inactive: 0.33%"}
